This passage reports Kd results from paper PMC11930079 (The Journal of Biological Chemistry, 2025).

This assay concerns the target T1, BRD4 tandem bromodomains (aa 36–460), WT (human, UniProt O60885 36-460).
T1 construct: human BRD4, tandem bromodomains BD1 and BD2 with the linker between them, residues 36-460; The His6 tag is named for the sucrose gradient assay; also called BRD4 WT construct; WT BRD4 tandem bromodomains; source: recombinantly purified
Put plainly: ITC; VP-ITC; 0.4 mM peptide injected into the cell with 10 uM BRD4 (aa 36-460); 25 mM Hepes pH 7.5, 150 mM NaCl, 2% v/v glycerol. Conditions: both partners purified.

Take SGRGKGGKGLGKGGAY (acetyl-lysine at K5 and K12) [H4K5/12-diacetyl peptide]: the Kd was approximately 200 µM.
